These are literature values, as cited in US5721213A, “Peptides, active as inhibitors of platelet aggregation” (Nippon Steel Corporation, priority 1993, dated 1998).

The conditions of this data set: added to platelet fractions, plasma enzymes; cited from earlier work.

“arginine-glycine-aspartic acid-phenylalanine [RGDF]”: the “stability in platelet fractions” value was “broken down by the action of enzymes present in plasma”.
